From ChEMBL document CHEMBL5365409, “Novel series of tunable µOR modulators with enhanced brain penetration for the treatment of opioid use disorder, pain and neuropsychiatric indications” (Bioorg Med Chem Lett, 2023)

Protein sequences, listed by entry. Tags and fused reporters are not part of them.
UniProt P35372, whole entry: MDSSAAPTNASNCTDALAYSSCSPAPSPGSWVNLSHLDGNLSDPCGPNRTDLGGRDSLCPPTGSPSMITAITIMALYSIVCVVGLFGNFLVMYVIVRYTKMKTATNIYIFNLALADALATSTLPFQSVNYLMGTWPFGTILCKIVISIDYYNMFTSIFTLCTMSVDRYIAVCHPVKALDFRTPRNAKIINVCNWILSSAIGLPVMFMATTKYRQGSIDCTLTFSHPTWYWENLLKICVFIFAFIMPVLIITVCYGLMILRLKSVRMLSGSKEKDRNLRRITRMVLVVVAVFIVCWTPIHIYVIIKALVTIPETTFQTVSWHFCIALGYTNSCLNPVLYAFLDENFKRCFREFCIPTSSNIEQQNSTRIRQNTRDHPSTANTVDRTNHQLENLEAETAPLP

Each compound was assayed against Mu-type opioid receptor (Homo sapiens, UniProt P35372) (assay: Agonist activity at human mu opioid receptor stably transfected in CHO cells by cAMP assay).
Format: functional, cell-based
`C[C@H](CC(=O)NC[C@H](Cc1ccc(O)cc1)N(C)C)c1ccccc1` gave an EC50 of 29 nM.
`C[C@@H](CC(=O)NC[C@H](Cc1c(F)cc(O)cc1F)N(C)C)c1ccccc1` gave an EC50 of 14.5 nM.
In the case of `C[C@@H](CC(=O)NC[C@H](Cc1ccc(O)cc1)N(C)C)c1ccccc1`, the EC50 is reported as 7.5 nM.
